{"source": "patent US6660310B2", "about": "“Method to infuse fresh fruits and vegetables with an agent” (American Moxie LLC, priority 2000, dated 2003)", "conditions": "read-out: KD (binding affinity); assay characteristic of the radioligand; rat prostate cytosol", "data": [{"substance": "[^3H] Methyltrienolone (R1881)", "values": [{"measurement": "Kd", "result": 4, "unit": "nM"}]}]}
